Literature values as cited in US7439027B2, “Method for modulating process mediated by farnesoid activated receptors” (The Salk Institute for Biological Studies, priority 1995, dated 2008).

Chains of the proteins cited; added tags and fusions are not shown. Lines headed by an entry give the natural chain unless they say otherwise; changes in a name come on top.
UniProt Q13907: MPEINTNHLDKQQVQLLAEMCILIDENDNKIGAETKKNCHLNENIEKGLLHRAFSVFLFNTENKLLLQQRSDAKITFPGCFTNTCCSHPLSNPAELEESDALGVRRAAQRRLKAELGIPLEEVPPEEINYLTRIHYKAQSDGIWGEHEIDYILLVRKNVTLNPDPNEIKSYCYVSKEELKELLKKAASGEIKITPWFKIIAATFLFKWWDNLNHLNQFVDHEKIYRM

Molecular target: isopentenyl pyrophosphate isomerase (Homo sapiens, UniProt Q13907)
Settings: read-out: half-maximal inhibition of isopentenyl pyrophosphate isomerase; cited from earlier work

3,7,11-trimethyl-2,6,10-dodecatrien-1-ol-pyrophosphate [FPP]
IC50: 10 µM
